Legend:
[1] = target: Matrix metalloproteinase-9 (Homo sapiens, UniProt P14780); experiment: Inhibitory activity against matrix metalloprotease 9 (MMP-9).
Collagenase 3 = Collagenase 3 (Homo sapiens, UniProt P45452); experiment: Inhibitory activity against matrix metalloprotease 13 (MMP-13).
Interstitial collagenase = target: T1, Interstitial collagenase (Homo sapiens, UniProt P03956); experiment: Inhibitory activity against matrix metalloprotease 1 (MMP-1).
T1 sequence (P03956 whole entry): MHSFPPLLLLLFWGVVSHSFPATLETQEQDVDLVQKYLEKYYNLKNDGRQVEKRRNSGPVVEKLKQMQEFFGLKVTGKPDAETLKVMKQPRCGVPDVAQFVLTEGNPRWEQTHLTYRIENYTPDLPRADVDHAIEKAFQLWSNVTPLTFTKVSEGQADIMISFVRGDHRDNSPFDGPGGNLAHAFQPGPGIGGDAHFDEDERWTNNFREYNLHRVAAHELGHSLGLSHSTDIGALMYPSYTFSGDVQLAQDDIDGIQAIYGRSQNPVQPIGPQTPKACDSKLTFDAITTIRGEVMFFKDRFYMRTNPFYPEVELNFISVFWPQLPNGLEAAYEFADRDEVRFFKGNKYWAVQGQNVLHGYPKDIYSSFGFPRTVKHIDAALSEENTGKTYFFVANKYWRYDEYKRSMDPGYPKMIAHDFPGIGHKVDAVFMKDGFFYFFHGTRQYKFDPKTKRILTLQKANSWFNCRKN

Chains of the proteins cited; added tags and fusions are not shown. Lines headed by an entry give the natural chain unless they say otherwise; changes in a name come on top.
UniProt P14780: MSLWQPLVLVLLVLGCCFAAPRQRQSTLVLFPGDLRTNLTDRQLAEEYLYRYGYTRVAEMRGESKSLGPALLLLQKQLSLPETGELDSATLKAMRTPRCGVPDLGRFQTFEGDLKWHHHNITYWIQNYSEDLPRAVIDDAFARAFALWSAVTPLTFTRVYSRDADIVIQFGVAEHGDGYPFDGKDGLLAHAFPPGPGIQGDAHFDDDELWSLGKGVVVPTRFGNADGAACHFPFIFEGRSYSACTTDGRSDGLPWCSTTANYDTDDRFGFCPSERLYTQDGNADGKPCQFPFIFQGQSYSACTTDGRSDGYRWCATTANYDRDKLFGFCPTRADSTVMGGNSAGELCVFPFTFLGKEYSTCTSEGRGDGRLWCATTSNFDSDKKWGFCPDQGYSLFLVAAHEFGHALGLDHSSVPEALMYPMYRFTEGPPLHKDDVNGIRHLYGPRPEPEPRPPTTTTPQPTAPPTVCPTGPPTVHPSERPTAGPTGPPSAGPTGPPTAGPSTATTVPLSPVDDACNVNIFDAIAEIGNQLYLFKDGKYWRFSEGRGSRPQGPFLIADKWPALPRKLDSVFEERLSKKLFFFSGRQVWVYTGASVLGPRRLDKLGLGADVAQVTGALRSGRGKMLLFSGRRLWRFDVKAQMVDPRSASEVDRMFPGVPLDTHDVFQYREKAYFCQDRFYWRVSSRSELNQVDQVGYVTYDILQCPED

SMILES | IC50 [1] | IC50 (Collagenase 3) | IC50 (Interstitial collagenase)
Cc1nn(C)c2ncc(C(=O)NO)c(N(C)S(=O)(=O)c3ccc(Oc4ccc(Cl)cc4)cc3)c12 | 1 nM | 1 nM | 
COc1ccc(S(=O)(=O)N(Cc2cccnc2)c2c(C(=O)NO)cnc3cc(C(F)(F)F)ccc23)cc1 |  |  | 77 nM
CC#CCOc1ccc(S(=O)(=O)N(C)c2c(C(=O)NO)cnc3c2c(C)nn3C)cc1 |  |  | 1000 nM
O=C(NO)c1cnc2cc(C(F)(F)F)ccc2c1N(Cc1cccnc1)S(=O)(=O)c1ccc(-c2ccccc2)cc1 |  |  | 4200 nM
COc1ccc(S(=O)(=O)N(Cc2ccccc2)c2c(C(=O)NO)cnc3ccc(C(F)(F)F)cc23)cc1 |  |  | 172 nM
COc1ccc(S(=O)(=O)N(Cc2ccccc2)c2c(C(=O)NO)cnc3cc(Br)ccc23)cc1 |  |  | 172 nM

Source: ChEMBL document CHEMBL1136711, “Synthesis and SAR of bicyclic heteroaryl hydroxamic acid MMP and TACE inhibitors” (Bioorg Med Chem Lett, 2003)
